The source of these data is US6399615B1, “Farnesyl protein transferase inhibitors” (Schering Corporation, priority 1997, dated 2002).

Protein sequences, listed by entry. Tags and fused reporters are not part of them.
UniProt P49356, whole entry: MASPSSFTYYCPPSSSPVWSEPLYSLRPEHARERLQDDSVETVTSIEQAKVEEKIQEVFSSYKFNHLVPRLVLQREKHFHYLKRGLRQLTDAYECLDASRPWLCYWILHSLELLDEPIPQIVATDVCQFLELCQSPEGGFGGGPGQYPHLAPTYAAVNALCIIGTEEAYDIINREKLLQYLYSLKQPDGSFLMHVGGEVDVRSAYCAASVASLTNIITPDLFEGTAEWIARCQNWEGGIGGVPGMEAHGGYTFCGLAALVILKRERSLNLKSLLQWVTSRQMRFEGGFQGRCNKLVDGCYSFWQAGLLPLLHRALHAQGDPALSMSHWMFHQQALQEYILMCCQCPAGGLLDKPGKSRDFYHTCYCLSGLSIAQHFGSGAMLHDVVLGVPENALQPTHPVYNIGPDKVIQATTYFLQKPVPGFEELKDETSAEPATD

Assay [1] deals with farnesyl protein transferase (Homo sapiens, UniProt P49354+P49356). Nature of the assay: FPT IC50 (inhibition of farnesyl protein transferase, in vitro enzyme assay). The following applies: read-out: FPT IC50. As to the method: (§1) FPT IC50 (inhibition of farnesyl protein transferase, in vitro enzyme assay) and COS Cell IC50 (Cell-Based Assay) were determined following the assay procedures described in WO 95/10516, published Apr. 20, 1995. GGPT IC50 (inhibition of geranylgeranyl protein transferase, in vitro enzyme assay), Cell Mat Assay, and anti-tumor activity (in vivo anti-tumor studies) could be determined by the assay procedures described in WO 95/10516. The disclosure of WO 95/10516 is incorporated herein by reference thereto.

For assay [2], the system named is COS Cell. Nature of the assay: COS Cell IC50 (Cell-Based Assay). The settings on record: read-out: COS Cell IC50; COS cells. As to the method: as §1

Regarding `CCOC(=O)C1CCC(CC(=O)N2CCC([C@H]3c4ncc(Br)cc4CCc4cc(Cl)cc(Br)c43)CC2)CC1` (some centres unmarked), the IC50 in assay [1] is 5.6 nM; in assay [2], 22 nM.

The term IC50 denotes the concentration at which inhibition is half-maximal.
